Source: publication PMC5762728 (Scientific Reports, 2018)

Columns and labels:
[1] = molecular target: T1, N-domain of bovine ACE (N-ACE) (Bos taurus, UniProt P12820); assay: Hydrolysis of Aβ metal-binding-domain peptides by N-ACE, products identified/quantified by MALDI-TOF MS; settings: for Peptide bond hydrolysed by N-ACE: bicarbonate buffer pH 7.8, 37 °C, incubation 40 min (Aβ(1-16)), 130 min (amidated Aβ peptides), 60 min (ratAβ peptide); for Bond cleaved, N-ACE (backbone positions): same digestion as products observed, 37 °C
T1 sequence (P12820 40-624 limits assumed): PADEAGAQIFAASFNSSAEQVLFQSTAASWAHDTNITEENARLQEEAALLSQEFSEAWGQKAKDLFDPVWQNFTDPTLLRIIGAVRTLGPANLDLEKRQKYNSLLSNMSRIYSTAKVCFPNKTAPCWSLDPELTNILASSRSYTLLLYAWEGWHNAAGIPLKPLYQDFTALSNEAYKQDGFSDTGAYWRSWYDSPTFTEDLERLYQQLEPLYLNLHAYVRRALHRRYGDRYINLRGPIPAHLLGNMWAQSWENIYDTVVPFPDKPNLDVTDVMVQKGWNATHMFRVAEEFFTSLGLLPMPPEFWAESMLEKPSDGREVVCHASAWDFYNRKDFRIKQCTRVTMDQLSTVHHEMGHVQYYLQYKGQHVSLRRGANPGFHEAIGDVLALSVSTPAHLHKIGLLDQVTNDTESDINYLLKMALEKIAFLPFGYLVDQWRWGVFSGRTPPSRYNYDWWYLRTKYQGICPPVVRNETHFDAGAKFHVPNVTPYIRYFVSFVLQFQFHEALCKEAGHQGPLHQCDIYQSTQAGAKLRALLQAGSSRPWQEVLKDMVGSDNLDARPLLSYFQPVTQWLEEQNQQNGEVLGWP

[2] = molecular target: T2, C-domain of bovine ACE (C-ACE) (Bos taurus, UniProt P12820); assay: Hydrolysis of Aβ metal-binding-domain peptides by C-ACE, products identified/quantified by MALDI-TOF MS; settings: same experimental conditions as N-ACE, 37 °C
T2 sequence (P12820 643-1222 limits assumed): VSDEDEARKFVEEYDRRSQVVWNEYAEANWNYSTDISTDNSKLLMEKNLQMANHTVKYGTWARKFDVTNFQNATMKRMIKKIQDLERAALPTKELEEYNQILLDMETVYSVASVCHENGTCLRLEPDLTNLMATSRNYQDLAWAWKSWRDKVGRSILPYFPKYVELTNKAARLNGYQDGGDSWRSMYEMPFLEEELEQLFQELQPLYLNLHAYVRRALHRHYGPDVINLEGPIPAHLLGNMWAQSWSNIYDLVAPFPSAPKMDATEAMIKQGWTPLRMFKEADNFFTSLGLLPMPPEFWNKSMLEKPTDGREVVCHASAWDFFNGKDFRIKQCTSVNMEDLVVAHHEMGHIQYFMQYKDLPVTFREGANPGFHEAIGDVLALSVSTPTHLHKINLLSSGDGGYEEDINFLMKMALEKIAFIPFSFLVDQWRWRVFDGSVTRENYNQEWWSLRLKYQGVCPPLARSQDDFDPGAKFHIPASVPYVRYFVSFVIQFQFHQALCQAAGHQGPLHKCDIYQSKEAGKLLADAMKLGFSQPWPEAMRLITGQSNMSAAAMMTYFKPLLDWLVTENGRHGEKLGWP

N-domain of ACE [3] = settings: cited from earlier work
Description: This hormone is synthesized in the organism with a modified C-terminal amino-acid residue (Pyr-HWSYGLRPG-[Amide]) and a negatively charged pyroglutamate residue at the N-terminus. […] Thus, inhibitors of ACE should mainly suppress the formation of isoAβ(6-x) species, what could explain the positive effect of these inhibitors on patients with AD[33]–[37] and the slowing of neurod ...

C-domain of ACE = settings: cited from earlier work
Description: Other researchers using peptides with unprotected ends have shown that the hydrolysis of Aβ(1–16) by both domains of ACE is not limited or specific, and that under certain conditions the C-domain also hydrolyzes Aβ peptides.

C-domain of ACE (C-ACE) = assay: C-ACE with lisinopril; settings: bovine, 37 °C
[4] = test system: C-ACE (C-domain of bovine ACE); settings: 37 °C, up to 40 min
[5] = test system: N-ACE (N-domain of bovine ACE); settings: 37 °C, up to 130 min
N-domain of ACE [6] = settings: cited from earlier work; remark: listed apart in the source

| Compound | Peptide bond hydrolysed by N-ACE [1] | Bond cleaved, N-ACE (backbone positions) [1] | Peptide bond(s) hydrolysed by C-ACE [2] | cleaved bond [5] | further results |
| --- | --- | --- | --- | --- | --- |
| CC(C)[C@H](NC(=O)[C@H](CCC(=O)O)NC(=O)[C@H](Cc1ccc(O)cc1)NC(=O)CNC(=O)[C@H](CO)NC(=O)[C@H](CC(=O)O)NC(=O)[C@H](Cc1c[nH]cn1)NC(=O)[C@H](CCCNC(=N)N)NC(=O)[C@H](Cc1ccccc1)NC(=O)[C@H](CCC(=O)O)NC(=O)[C@H](C)NC(=O)[C@@H](N)CC(=O)O)C(=O)N[C@@H](Cc1c[nH]cn1)C(=O)N[C@@H](Cc1c[nH]cn1)C(=O)N[C@@H](CCC(N)=O)C(=O)N[C@@H](CCCCN)C(=O)O [Aβ(1-16), Asp-Ala-Glu-Phe-Arg^5-His-Asp- Ser-Gly-Tyr^10-Glu-Val-His-His-Gln^15-Lys] | Нis14-Gln15 | 13–14 | Нis14-Gln15 and Нis13-Нis14 | – | – |
| CC(C)[C@H](NC(=O)[C@H](CCC(=O)O)NC(=O)[C@H](Cc1ccc(O)cc1)NC(=O)CNC(=O)[C@H](CO)NC(=O)[C@H](CC(=O)O)NC(=O)[C@H](Cc1c[nH]cn1)NC(=O)[C@H](CCCNC(=N)N)NC(=O)[C@H](Cc1ccccc1)NC(=O)[C@H](CCC(=O)O)NC(=O)[C@H](C)NC(=O)[C@@H](N)CC(=O)O)C(=O)N[C@@H](Cc1c[nH]cn1)C(=O)N[C@@H](Cc1c[nH]cn1)C(=O)N[C@@H](CCC(N)=O)C(=O)N[C@@H](CCCCN)C(N)=O [Aβ(1-16)-[Amide], Asp-Ala-Glu-Phe-Arg^5-His-Asp- Ser-Gly-Tyr^10-Glu-Val-His-His-Gln^15-Lys-[NH2]] | Arg5-His6 | 5–6 | does not cleave | – | – |
| CC(=O)N[C@@H](CC(=O)O)C(=O)N[C@@H](C)C(=O)N[C@@H](CCC(=O)O)C(=O)N[C@@H](Cc1ccccc1)C(=O)N[C@@H](CCCNC(=N)N)C(=O)N[C@@H](Cc1c[nH]cn1)C(=O)N[C@@H](CC(=O)O)C(=O)N[C@@H](CO)C(=O)NCC(=O)N[C@@H](Cc1ccc(O)cc1)C(=O)N[C@@H](CCC(=O)O)C(=O)N[C@H](C(=O)N[C@@H](Cc1c[nH]cn1)C(=O)N[C@@H](Cc1c[nH]cn1)C(=O)N[C@@H](CCC(N)=O)C(=O)N[C@@H](CCCCN)C(N)=O)C(C)C [[CH3CO]-Asp-Ala-Glu-Phe-Arg^5-His-Asp- Ser-Gly-Tyr^10-Glu-Val-His-His-Gln^15-Lys-[NH2]] | Arg5-His6 | 5–6 | does not cleave | – | Bond cleaved / hydrolysis by N-domain of ACE (earlier work) (N-domain of ACE [3]): Arg5-His6; Hydrolysis by C-domain of ACE (earlier work) (C-domain of ACE): does not affect any of the bonds |
| DAEFRHDSGYEVHHQK | – | – | – | – | not cleaved (C-domain of ACE (C-ACE)): formation of hydrolysis products fully prevented; cleaved bond [4]: His13-His14 |
| DAEFRHDSGYEVHHQK-[Amide] | – | – | – | Arg5-His6, 10 min | – |
| [Acetyl]- DAEFRHDSGYEVHHQK Amide] | – | – | – | Arg5-His6, 10 min | cleaved bond (N-domain of ACE [6]): Arg5-His6 |
